Assay results: patent publication US20240245770A1, “COMPOSITIONS AND METHODS FOR TREATING NEUROMUSCULAR DISORDERS” (The Regents of the University of California, priority 2019, published 2024)

System: oral squamous carcinoma stem cells (OSCSCs)
Assay: 51Cr release NK cytotoxicity of treated PBMCs against OSCSCs
Format: cell-based, human
Settings: for Cr release assay, NK cell mediated cytotoxicity: overnight treatment; for cytotoxicity of NK cells, Mean: Table 102; for NK cell cytotoxicity, Mean: Table 195
Procedure: The ^51Cr release assay was performed as described previously. Patient-derived OSCSCs were used as a specific and sensitive NK targets to assess NK cell-mediated cytotoxicity. Briefly, different numbers of effector cells were incubated with ^51Cr-labeled OSCSCs. After 4-hour incubation the supernatants were harvested from each sample and counted on a gamma counter. The percentage specific cytotoxicity was calculated using the following formula:
Lytic unit 30/10^6 is calculated by using the inverse of the number of effector cells needed to lyse 30% of tumor target cells×100.
(§1) PBMC were left untreated, or treated with IL-2 (1000 U/mL) or treated with the combination of IL-2 and anti-CD16 mAb (3 μg/ml), or IL-2+ anti-CD3/28 antibodies (25 μl/mL) as shown in the figure. After an overnight incubation, the NK cell mediated cytotoxicity was determined by the standard 4-hour chromium release assay using oral squamous carcinoma stem cells (OSCSCs) as targets. The lytic units 30/10^6 cells were determined using inverse number of NK cells required to lyse 30% of the target cells×100. No significant differences in primary NK cytotoxicity within PBMCs between the donors (FIG. 2B).
as §1, with “PBMC cytotoxicity. PBMC” for “PBMC”, “IL-2+anti-CD3/28” for “IL-2+ anti-CD3/28”, “μl/mL) and IL-2+sAJ2 (1:20 PBMC:sAJ2 ratio)” for “μl/mL)”, “cells×100 (Table 18).” for “cells×100. No significant differences in primary NK cytotoxicity within PBMCs between the donors (FIG. 2B).”

Recombinant human IL-2
Cr release assay, NK cell mediated cytotoxicity (H65 SM PBMC): 36.23 lytic units 30/10^6 cells | Cr release assay, NK cell mediated cytotoxicity (H66 JC (ALS) PBMC): 35.36 lytic units 30/10^6 cells | Cr release assay, NK cell mediated cytotoxicity (H67 MK PBMC): 44.41 lytic units 30/10^6 cells | PBMC cytotoxicity (H80 DM PBMC): 7.04 lytic units 30/10^6 cells | PBMC cytotoxicity (H81 JC (ALS) PBMC): 15.09 lytic units 30/10^6 cells | PBMC cytotoxicity (H82 TC (healthy twin) PBMC): 9.04 lytic units 30/10^6 cells | PBMC (Cr51) cytotoxicity (H84 JC (ALS) AM): 21.96 lytic units 30/10^6 cells | PBMC (Cr51) cytotoxicity (H85 TC (healthy twin) AM): 25.98 lytic units 30/10^6 cells | PBMC (Cr51) cytotoxicity (H86 JC (ALS) PM): 13.68 lytic units 30/10^6 cells | PBMC (Cr51) cytotoxicity (H87 TC (healthy twin) PM): 17.09 lytic units 30/10^6 cells | PBMC cytotoxicity (H88 JC (ALS) PBMC): 17.85 lytic units 30/10^6 cells | PBMC cytotoxicity (H89 TC (healthy twin) PBMC): 23.85 lytic units 30/10^6 cells | PBMC cytotoxicity, LU30 Averages (H90 JC (ALS) PBMC): 7.28 lytic units 30/10^6 cells | PBMC cytotoxicity, LU30 Averages (H91 TC (healthy twin) PBMC): 22.55 lytic units 30/10^6 cells | cytotoxicity of NK cells, Mean (H105 JC (ALS)): 15.37 | cytotoxicity of NK cells, Mean (H106 TC (control twin)): 12.76 | lytic units 30/10^6 cells, Mean (H131 JC): 29.22 lytic units 30/10^6 cells | lytic units 30/10^6 cells, Mean (H132 TC): 36.04 lytic units 30/10^6 cells | lytic units 30/10^6 cells, Mean (H133 WO): 54.49 lytic units 30/10^6 cells | NK cytotoxicity of PBMC, Mean (H160 JC PBMC): 3.93 | NK cytotoxicity of PBMC, Mean (H161 TC PBMC): 3.71 | NK cytotoxicity of PBMC, Mean (H162 WO PBMC): 32.75 | NK cytotoxicity of PBMC, Mean (H165 RS PBMC): 80.29 | NK cytotoxicity of PBMC, Mean (H169 JC PBMC): 34.90 | NK cytotoxicity of PBMC, Mean (H170 TC PBMC): 24.21 | NK cytotoxicity in PBMCs, Mean (H171 JC PBMC, ALS): 16.43 | cytotoxicity of NK cells in PBMCs, Mean (H171 JC PBMC, ALS): 42.30 | NK cytotoxicity in PBMCs, Mean (H172 TC PBMC, control twin): 33.37 | cytotoxicity of NK cells in PBMCs, Mean (H172 TC PBMC, control twin): 31.50 | NK cytotoxicity, Mean (H184 JC PBMC, Table 191): 38.83 | NK cytotoxicity, Mean (H185 TC PBMC, Table 191): 22.48 | NK cell cytotoxicity, Mean (H186 JC PBMC): 31.20 | NK cell cytotoxicity, Mean (H187 TC PBMC): 6.37 | NK cell cytotoxicity, Mean (H190 RS PBMC): 38.68 | NK cytotoxicity, Mean (H194 JC PBMC, Table 201): 9.69 | NK cytotoxicity, Mean (H195 RS PBMC, Table 201): 8.03 | NK cytotoxicity, Mean (H196 TC PBMC, Table 201): 7.23 | NK cytotoxicity, Mean (H197 YC PBMC, Table 201): 13.85 | NK cytotoxicity, Mean (H198 MK PBMC, Table 201): 8.32 | NK cytotoxicity, Mean (H202 JC PBMC, Table 218): 43.67 | NK cytotoxicity, Mean (H203 TC PBMC, Table 218): 26.92 | NK cytotoxicity, Mean (H204 RS PBMC, Table 218): 35.63 | NK cytotoxicity, Mean (H211 JC PBMC (ALS patient)): 9.20 | NK cytotoxicity, Mean (H212 TC PBMC (twin control)): 6.96 | NK cytotoxicity, Mean (H213 JC PBMC (ALS patient)): 21.64 | NK cytotoxicity, Mean (H214 TC PBMC (twin control)): 22.56 | Cr release assay, NK cell mediated cytotoxicity (P66 LP PBMC): 61.31 lytic units 30/10^6 cells | PBMC cytotoxicity (P82 SS PBMC): 12.53 lytic units 30/10^6 cells | Lytic units, Mean (P153 PBMC): 31.23 Lu70/10^6 | LU AVERAGE (PBMC H140 JC): 18.03 LU 30/106 cells | LU AVERAGE (PBMC H141 RS): 2.14 LU 30/106 cells | LU AVERAGE (PBMC H142 JS): 15.16 LU 30/106 cells | lytic units 30/10^6 cells, Mean (PBMC H143 JC): 20.96 lytic units 30/10^6 cells | lytic units 30/10^6 cells, Mean (PBMC H144 TC): 16.77 lytic units 30/10^6 cells | lytic units 30/10^6 cells, Mean (PBMC H145 WO): 11.70 lytic units 30/10^6 cells | lytic units 30/10^6 cells, Mean (PBMC H146 JC): 21.79 lytic units 30/10^6 cells | lytic units 30/10^6 cells, Mean (PBMC H147 TC): 12.29 lytic units 30/10^6 cells | lytic units 30/10^6 cells, Mean (PBMC H148 WO): 8.22 lytic units 30/10^6 cells | 51Cr release PBMC Mean (PBMC of H102 JC): 44.25 lytic units 30/10^6 cells | 51Cr release PBMC Mean (PBMC of H103 TC): 49.87 lytic units 30/10^6 cells | 51Cr release PBMC Mean (PBMC of H104 RS (another patient with ALS)): 66.24 lytic units 30/10^6 cells | 51Cr PBMC cytotoxicity, Mean (PBMC of H106 JC (ALS patient)): 16.36 lytic units 30/10^6 cells | PBMC cytotoxicity, Mean (PBMC of H109 RS1 (ALS patient, Pre-NAC)): 15.02 lytic units 30/10^6 cells | PBMC cytotoxicity, Mean (PBMC of H110 RS2 (ALS patient, Post-NAC)): 27.60 lytic units 30/10^6 cells | PBMC cytotoxicity, Mean (PBMC of H111 AK (control)): 26.01 lytic units 30/10^6 cells | PBMC cytotoxicity, Mean (PBMC of H117 JC (ALS)): 9.22 lytic units 30/10^6 cells | H117.1 JC PBMC, Mean (PBMC of H117.1 JC (ALS patient), Table 106): 3.93 | PBMC cytotoxicity, Mean (PBMC of H118 TC (control twin)): 8.97 lytic units 30/10^6 cells | PBMC cytotoxicity, Mean (PBMC of H119 BM): 10.88 lytic units 30/10^6 cells | PBMC cytotoxicity, Mean (PBMC of H120 JC (ALS)): 20 lytic units 30/10^6 cells | PBMC cytotoxicity, Mean (PBMC of H121 TC (control twin)): 28.10 lytic units 30/10^6 cells | PBMC cytotoxicity, Mean (PBMC of H122 MV): 175.4 lytic units 30/10^6 cells | PBMC cytotoxicity, Mean (PBMC of P99 ME (control)): 17.22 lytic units 30/10^6 cells
